# Apparent affinities of Ab-91 variants for a coronavirus HR2 peptide

Data: MIT Lincoln Laboratory AlphaSeq set, Engelhart et al. 2022, doi:10.1038/s41597-022-01779-4, as distributed in FLAb.

Target peptide (SARS-CoV-2 spike, HR2 region): PDVDLGDISGINAS

Parent: Ab-91, a human scFv built as VL, a (GGGGS)3 linker, VH. Only the CDRs of the heavy chain vary.
VL: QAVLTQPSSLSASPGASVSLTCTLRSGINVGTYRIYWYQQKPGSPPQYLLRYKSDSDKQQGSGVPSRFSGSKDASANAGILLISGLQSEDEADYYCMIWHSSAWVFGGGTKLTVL
VH: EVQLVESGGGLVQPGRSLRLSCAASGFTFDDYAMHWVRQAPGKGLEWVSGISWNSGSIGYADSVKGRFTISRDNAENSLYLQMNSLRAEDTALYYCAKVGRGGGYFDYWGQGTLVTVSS

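In library AAYL51, one, two or three CDR residues were substituted; doubles and triples were drawn at random. In AlphaSeq, yeast of one mating type display the scFv and yeast of the other type display the target. Pairs that bind mate more often; barcode pairs of the diploids are counted by sequencing. Read counts were normalised to the haploid input and turned into Kd by a linear fit to BCL2-family pairs of known affinity, for each replicate. The assay was run in three technical replicates.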

Each variant is given by its three heavy chain CDRs, as the data file delimits them; those of the parent are GFTFDDYAMH, GISWNSGSIGYADSVK, VGRGGGYFDY. Numbers give log10(Kd / nM), so 0 is 1 nM and 3 is 1 µM. Smaller is tighter. A mean of the replicates is given; it leaves out those without a signal. Where no diploid with the target was found in that replicate, the entry reads "ND": below detection, most likely a poor binder, though not proof of it. Background: pairings of library AAYL51 with three empty control strains gave a value in 21% of cases (median 4.54, 5th percentile 3.26). Values in that range, when seen in few replicates, are hard to tell from nonspecific mating. For each scFv, signals with the empty controls are counted beside the result, with their mean in brackets.

CDR-H1,CDR-H2,CDR-H3,log10 Kd (nM) by replicate,"mean, log10 nM",control signals
GFTFDDYAMH,FISWNAGSIGYADSVK,VGHGGGYFDY,ND ND ND,ND,1/9 (2.79)
GFTFDAYAMH,GISWNSGSIGYADSVK,VGRGFGYQDY,0.51 0.54 0.11,0.39,0/9
GFTFDDYAMH,GISWNSGSIGYADLVK,VGRAGVYFDY,ND ND ND,ND,0/9
MFTFDDPAMH,GISWNSGSIGYADSVK,VGRGGYYFDY,ND 4.52 ND,4.52,1/9 (4.59)
GFTFDDYAMN,GISWCSGSIGYADSVK,VFRGGGYFDY,ND ND ND,ND,0/9
GTTFDDYAMH,GISWNSGSIGYADSTK,VGRGGGYFVY,4.60 ND 4.30,4.45,1/9 (5.16)
GFTFDDYAMH,GASWNSGSTGYADSVN,VGRGGGYFDY,ND ND ND,ND,0/9
GFTFDDYAMH,GISWNSGSICYADSVE,VGRGGGYFSY,ND ND ND,ND,0/9
GFTFDMYAMQ,GISWNSGSVGYADSVK,VGRGGGYFDY,ND 4.24 4.25,4.25,1/9 (5.13)
GITFDDYAMH,GMSWNSGSIGYADSVK,VGRRGGYFDY,ND ND ND,ND,0/9
GFTFDDYAMH,GISYNTGSIGYADDVK,VGRGGGYFDY,1.42 1.39 0.97,1.26,5/9 (4.67)
GFTFDDYAMH,TISWNSGSIGYADSVK,LGRGGGYFDY,ND 4.13 ND,4.13,5/9 (3.59)
GTTFDDYAMH,FISWQSGSIGYADSVK,VGRGGGYFDY,ND ND 4.22,4.22,3/9 (5.70)
GFTRDDYAMH,GISWNSGSIGYADSVK,VGRGAGMFDY,5.01 4.90 4.50,4.80,4/9 (4.59)
GFTFDDYWMH,GASWNSGSIGYADSVK,VGRGGQYFDY,ND ND 5.56,5.56,2/9 (4.72)
KFTFDDYRMH,GISWNSGSIGYADSVK,VGRGGGKFDY,4.98 ND ND,4.98,2/9 (4.55)
GFTFDDYAMF,GISWNSGSNGYADSVK,VGRGGGYFFY,ND ND ND,ND,1/9 (4.52)
GFTFDDHANH,GISWNSDSIGYADSVK,VGRGGGYFDY,ND ND ND,ND,0/9
GFTFDDYAMH,DISWNSGSIGYMPSVK,VGRGGGYFDY,ND ND ND,ND,0/9
GFTFDDYAMC,CISWNSGSICYADSVK,VGRGGGYFDY,ND ND ND,ND,0/9
GFTFDDYAMH,GISWNSSSIGYTDSVK,YGRGGGYFDY,4.55 5.99 3.61,4.72,3/9 (3.79)
GFTFDDYAMH,GISWNSGSIGMADTVK,VGRGDGYFDY,2.15 2.33 1.84,2.11,4/9 (4.52)
GFTFDDYAMH,GKSGNSGSIGYADSVK,WGRGGGYFDY,ND ND ND,ND,0/9
GFTFDDYAMH,GISWFSGSDGYADSVK,VSRGGGYFDY,ND ND ND,ND,0/9
DFTFDIYAMH,GISWNSGSIGYADSVK,VGRGGGYQDY,ND ND ND,ND,0/9
GFTFFDYAMH,GISPNSMSIGYADSVK,VGRGGGYFDY,1.55 1.25 0.88,1.23,2/9 (4.66)
GFTFDDYAMH,IISWNSGSIGYAASVK,IGRGGGYFDY,ND ND ND,ND,2/9 (4.30)
GFTFDDGAMH,GRSWNSGSIGYAKSVK,VGRGGGYFDY,ND ND ND,ND,4/9 (4.39)
GFTFDDYMNH,GISWNSYSIGYADSVK,VGRGGGYFDY,4.58 ND 4.50,4.54,1/9 (3.78)
GFTFDDYAMH,GISWNCGSIGYADSVK,VGRGGGYYDK,4.50 ND ND,4.50,1/9 (5.29)
GFTFDLRAMH,GISWNSGSIGYADSVA,VGRGGGYFDY,ND 3.93 ND,3.93,1/9 (2.98)
GFTFHDYAMH,GISWNAGSIGYADGVK,VGRGGGYFDY,4.83 3.58 ND,4.21,0/9
GFTFDDQAMH,GESCNSGSIGYADSVK,VGRGGGYFDY,3.96 4.44 ND,4.20,1/9 (4.81)
GFTFDDYAMN,GISWNSGSIGYADSVK,VGRGGGYFDY,5.59 ND ND,5.59,2/9 (4.54)
GFTFDDYAMH,GICWPSGSIGYADSVK,VGRGDGYFDY,5.01 ND 5.80,5.41,5/9 (4.67)
GFDFDDYAMH,GISWNSGSIGYADSVK,VGRGGWYNDY,ND ND 4.30,4.30,1/9 (4.66)
GFTFDDYAMH,GISWNSGSIGYWDSVK,VGRGGGYFYV,4.73 ND ND,4.73,2/9 (5.74)
GFTFDDYAMH,NISWNMGSIGYADSSK,VGRGGGYFDY,4.96 ND ND,4.96,3/9 (4.55)
GFTFDDYAMH,GISWNSGSIPYADEVK,VGRLGGYFDY,6.50 4.43 ND,5.46,4/9 (4.95)
GFTFDDYAMH,DISWNSGSIGYAWSVK,VGRGGIYFDY,ND ND 1.64,1.64,0/9
GPTFDDYAMH,GDSWNSGSIGYADSVK,VGRGGGYFDY,ND ND ND,ND,0/9
GFTFDDYAMH,GISWNSGWIGYADSAK,VGRGGGCFDY,4.15 5.81 4.82,4.93,5/9 (4.37)

For reference, 3 entries of the list once more:

CDR-H1,CDR-H2,CDR-H3,log10 Kd (nM) by replicate,"mean, log10 nM",control signals
GFTFDDYAMH,GISWNSGSIGYWDSVK,VGRGGGYFYV,4.73 ND ND,4.73,2/9 (5.74)
GFTFDDYAMH,GISWNSGWIGYADSAK,VGRGGGCFDY,4.15 5.81 4.82,4.93,5/9 (4.37)
GFTFDDQAMH,GESCNSGSIGYADSVK,VGRGGGYFDY,3.96 4.44 ND,4.20,1/9 (4.81)